Test results: patent US12404250B2, “PARP inhibitors for treating cancer and asthma” (Oregon Health & Science University, priority 2018, dated 2025)

Assays:
[1] = target: T1, PARP12 (Homo sapiens, UniProt Q9H0J9); test: In vitro IC50, immunoprecipitated GFP-PARP12 auto-MARylation; format: biochemical
T1 construct: expressed in transfected cells; host or cells: HEK 293T
T1 sequence (Q9H0J9 1-701): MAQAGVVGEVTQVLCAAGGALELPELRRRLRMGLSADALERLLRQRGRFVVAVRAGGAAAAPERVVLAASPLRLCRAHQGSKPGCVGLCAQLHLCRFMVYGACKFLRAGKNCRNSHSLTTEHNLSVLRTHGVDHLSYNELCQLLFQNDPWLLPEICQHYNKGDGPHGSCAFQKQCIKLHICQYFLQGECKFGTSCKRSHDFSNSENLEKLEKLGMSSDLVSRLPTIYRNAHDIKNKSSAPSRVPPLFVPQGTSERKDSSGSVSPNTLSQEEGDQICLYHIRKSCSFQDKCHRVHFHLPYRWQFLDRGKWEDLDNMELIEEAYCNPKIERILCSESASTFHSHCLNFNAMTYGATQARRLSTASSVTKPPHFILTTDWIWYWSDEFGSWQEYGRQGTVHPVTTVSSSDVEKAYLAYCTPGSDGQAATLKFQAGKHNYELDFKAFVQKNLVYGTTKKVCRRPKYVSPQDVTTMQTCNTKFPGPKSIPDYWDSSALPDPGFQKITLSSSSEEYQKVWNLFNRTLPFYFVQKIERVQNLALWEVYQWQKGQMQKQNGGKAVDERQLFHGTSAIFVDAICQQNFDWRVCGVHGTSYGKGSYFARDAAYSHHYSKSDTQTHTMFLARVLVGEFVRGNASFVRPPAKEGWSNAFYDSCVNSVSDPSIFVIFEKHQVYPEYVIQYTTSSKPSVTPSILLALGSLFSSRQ

[2] = target: T2, PARP15 cat (Homo sapiens, UniProt Q460N3); test: In vitro IC50, PARP15 cat; format: biochemical; conditions: SEM from a minimum of three dose-response experiments
T2 construct: cat-wwe; cat
T2 sequence (Q460N3 482-678 limits assumed): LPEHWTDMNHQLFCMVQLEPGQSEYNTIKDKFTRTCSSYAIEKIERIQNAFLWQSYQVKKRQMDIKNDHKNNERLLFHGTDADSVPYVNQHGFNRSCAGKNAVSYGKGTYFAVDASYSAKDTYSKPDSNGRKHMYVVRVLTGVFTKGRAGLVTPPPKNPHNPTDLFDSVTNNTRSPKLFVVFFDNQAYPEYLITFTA

IC50 [1]: ~7 µM
IC50 [2]: > 10 µM
Structure (SMILES): CNCc1ccc(-c2[nH]c3cc(F)cc4c3c2CCNC4=O)cc1 [Rucaparib, reference compound]
